## Measured affinities in a library of Ab-95 light chain variants

Target: peptide PDVDLGDISGINAS, taken from heptad repeat 2 (HR2) of SARS-CoV-2 spike.

Ab-95 is the parent antibody, in scFv form: VH, then three GGGGS repeats, then VL. The heavy chain is unchanged in all variants.
VH: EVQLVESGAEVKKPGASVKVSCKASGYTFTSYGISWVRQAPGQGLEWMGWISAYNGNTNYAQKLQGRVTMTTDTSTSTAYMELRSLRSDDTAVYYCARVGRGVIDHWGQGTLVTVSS
VL: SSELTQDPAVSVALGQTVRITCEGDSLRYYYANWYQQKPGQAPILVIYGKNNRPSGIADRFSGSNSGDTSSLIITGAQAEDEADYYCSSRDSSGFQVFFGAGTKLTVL

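The parent was found by panning a naive human phage display library on the peptide. AAYL52 was designed without a model: most single CDR substitutions and a random sample of double and triple ones. The scFvs were displayed on barcoded MATa yeast, the peptide on MATalpha yeast. The frequency of each diploid, read from paired DNA barcodes, reflects how well the two displayed proteins bind. A regression on co-assayed BCL2-family reference pairs converts the normalised counts of each replicate to an apparent Kd. There are three technical replicates.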

Sequences are complete VL domains. Numbers give log10(Kd / nM), so 0 is 1 nM and 3 is 1 µM. Smaller is tighter. Where no diploid with the target was found in that replicate, the entry reads "nd": below detection, most likely a poor binder, though not proof of it. Nonspecific signal, from three strains lacking the peptide, appeared in 28% of pairings of library AAYL52, centred on 3.91 (5% of these signals below 2.90); values are not corrected for it. For each scFv, signals with the empty controls are counted beside the result, with their mean in brackets.

| # | VL | replicates, log10 nM | control signals |
|---|---|---|---|
| 1 | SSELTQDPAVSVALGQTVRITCSGDSLRYYYANWYQQKPGQAPILVIYGKCNRNSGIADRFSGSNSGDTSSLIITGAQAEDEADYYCSSRDSSGFQVFFGAGTKLTVL | 3.52 / 3.27 / 3.44 | 2/9 (4.18) |
| 2 | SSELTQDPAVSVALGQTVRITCEGDSLRYYYANWYQQKPGQAPILVIYGKNNRPSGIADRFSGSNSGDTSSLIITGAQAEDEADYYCSRRDQSGFQVFFGAGTKLTVL | 2.71 / 2.59 / nd | 2/9 (3.13) |
| 3 | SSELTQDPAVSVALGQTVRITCEGDSDRYTYANWYQQKPGQAPILVIYGKNNFPSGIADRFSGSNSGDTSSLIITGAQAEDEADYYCSSRDSSGFQVFFGAGTKLTVL | nd / nd / nd | 0/9 |
| 4 | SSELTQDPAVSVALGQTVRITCEGDSLRYYYANWYQQKPGQAPILVIYGKNNRPSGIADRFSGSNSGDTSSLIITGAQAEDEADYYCSSRDSNGFQVFFGAGTKLTVL | 2.49 / 2.39 / 1.57 | 2/9 (3.54) |
| 5 | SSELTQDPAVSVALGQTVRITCEGDSIRYYYAVWYQQKPGQAPILVIYGKNNRPSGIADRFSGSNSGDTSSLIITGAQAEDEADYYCSSRDKSGFQVFFGAGTKLTVL | 2.95 / 3.10 / 3.58 | 3/9 (4.37) |
| 6 | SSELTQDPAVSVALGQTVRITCEGDSLGYYYANWYQQKPGQAPILVIYGKNNRPMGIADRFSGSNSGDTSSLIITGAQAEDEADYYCSSRPSSGFQVFFGAGTKLTVL | 3.70 / 4.71 / nd | 4/9 (4.09) |
| 7 | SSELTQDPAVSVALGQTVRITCEGDSLRYYYANWYQQKPGQAPILVIYYKNNRPSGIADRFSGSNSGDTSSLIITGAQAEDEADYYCSCRWSSGFQVFFGAGTKLTVL | nd / nd / nd | 2/9 (4.04) |
| 8 | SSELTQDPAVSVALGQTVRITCEGDSLRYYYANWYQQKPGQAPILVIYGSNNRPSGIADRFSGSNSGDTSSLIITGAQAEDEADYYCSVRDGSGFQVFFGAGTKLTVL | 2.99 / 3.05 / 3.32 | 2/9 (4.37) |
| 9 | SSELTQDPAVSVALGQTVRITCEGDSLIYYYANWYQQKPGQAPILVIYGKNNQLSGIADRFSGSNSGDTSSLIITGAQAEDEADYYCSSRDSSGFQVFFGAGTKLTVL | nd / nd / nd | 2/9 (3.84) |
| 10 | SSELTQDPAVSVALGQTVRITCEGDSLRYYYANWYQQKPGQAPILVIYGKNNRPSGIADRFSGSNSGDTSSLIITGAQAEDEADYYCSSTDRSGDQVFFGAGTKLTVL | 2.94 / 3.08 / 2.62 | 5/9 (3.90) |
| 11 | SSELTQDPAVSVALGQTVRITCEGDSLRYYYANWYQQKPGQAPILVIYDKNNRPSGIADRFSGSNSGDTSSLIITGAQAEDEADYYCSSRDLSGFQVDFGAGTKLTVL | 3.01 / 4.44 / 3.30 | 2/9 (4.70) |
| 12 | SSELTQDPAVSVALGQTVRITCEGDSLRYYYACWYQQKPGQAPILVIYGKNNRPSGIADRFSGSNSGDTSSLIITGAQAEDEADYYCSQRDSSGFQVFFGAGTKLTVL | 5.07 / nd / nd | 1/9 (3.79) |
| 13 | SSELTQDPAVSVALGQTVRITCEGDSLRYYYPNWYQQKPGQAPILVIYRKNNRPSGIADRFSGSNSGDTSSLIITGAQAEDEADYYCSSVDSSGFQVFFGAGTKLTVL | nd / 4.14 / nd | 5/9 (3.83) |
| 14 | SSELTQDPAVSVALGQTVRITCPGDSLRYYYANWYQQKPGQAPILVIYGKNNRPSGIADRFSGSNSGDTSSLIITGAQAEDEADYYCSSRDSSPFQVFFGAGTKLTVL | nd / nd / nd | 0/9 |
| 15 | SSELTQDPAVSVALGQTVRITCEGDSLRYYYVNWYQQKPGQAPILVIYGKMNRPSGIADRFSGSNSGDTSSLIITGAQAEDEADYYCSSRDSSGDQVFFGAGTKLTVL | 2.88 / 3.33 / nd | 1/9 (3.43) |
| 16 | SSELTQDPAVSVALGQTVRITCEGDSLRYYYLNWYQQKPGQAPILVIYGKNNRPSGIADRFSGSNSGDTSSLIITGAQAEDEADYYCSSEDSSAFQVFFGAGTKLTVL | nd / 3.26 / nd | 2/9 (3.08) |
| 17 | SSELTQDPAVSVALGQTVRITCGGDSLRYYYANWYQQKPGQAPILVIYGKNNRPSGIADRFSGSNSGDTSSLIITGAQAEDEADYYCSSRHSWGFQVFFGAGTKLTVL | 1.65 / 2.05 / 1.57 | 3/9 (3.41) |
| 18 | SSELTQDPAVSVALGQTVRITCEGDSLRKYYANWYQQKPGQAPILVIYGKNYRDSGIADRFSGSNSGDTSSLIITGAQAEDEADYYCSSRDSSGFQVFFGAGTKLTVL | 2.58 / 3.55 / nd | 2/9 (3.73) |
| 19 | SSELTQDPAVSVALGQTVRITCEGDSLRYYYANWYQQKPGQAPILVIYSFNNRPSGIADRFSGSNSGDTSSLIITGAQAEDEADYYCSSRDSSGFQVRFGAGTKLTVL | nd / 3.91 / nd | 2/9 (3.21) |
| 20 | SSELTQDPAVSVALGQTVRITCVGDSLRYYYANWYQQKPGQAPILVIYGKNNRPCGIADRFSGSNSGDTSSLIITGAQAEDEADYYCSSGDSSGFQVFFGAGTKLTVL | 3.25 / 3.35 / 3.33 | 6/9 (4.33) |
| 21 | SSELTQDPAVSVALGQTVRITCEGDSLRYYYANWYQQKPGQAPILVIYGKNNSPSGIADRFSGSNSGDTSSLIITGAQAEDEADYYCSSRDSSGMLVFFGAGTKLTVL | 4.03 / 3.95 / 3.09 | 1/9 (5.55) |
| 22 | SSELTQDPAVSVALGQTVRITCEGDSGRYYTANWYQQKPGQAPILVIYGKNNRPSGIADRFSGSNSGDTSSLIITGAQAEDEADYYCSSRDSSGFLVFFGAGTKLTVL | 3.34 / nd / 4.04 | 3/9 (3.59) |
| 23 | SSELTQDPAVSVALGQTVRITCEGDSLRYYYAAWYQQKPGQAPILVIYGWPNRPSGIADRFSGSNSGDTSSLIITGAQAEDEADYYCSSRDSSGFQVFFGAGTKLTVL | 3.91 / 5.56 / 4.10 | 2/9 (3.55) |
| 24 | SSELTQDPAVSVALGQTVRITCEGDSHRLYYANWYQQKPGQAPILVIYGKNNRPSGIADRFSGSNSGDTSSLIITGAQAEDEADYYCSSRDSSGRQVFFGAGTKLTVL | 3.07 / 2.52 / 3.04 | 5/9 (4.02) |

Repeated from above, the 2 best binders with a signal in all replicates:

{"VL": "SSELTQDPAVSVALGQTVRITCGGDSLRYYYANWYQQKPGQAPILVIYGKNNRPSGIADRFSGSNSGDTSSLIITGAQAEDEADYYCSSRHSWGFQVFFGAGTKLTVL", "replicates, log10 nM": "1.65 / 2.05 / 1.57", "control signals": "3/9 (3.41)"}
{"VL": "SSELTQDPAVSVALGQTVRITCEGDSLRYYYANWYQQKPGQAPILVIYGKNNRPSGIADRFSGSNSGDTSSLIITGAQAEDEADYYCSSRDSNGFQVFFGAGTKLTVL", "replicates, log10 nM": "2.49 / 2.39 / 1.57", "control signals": "2/9 (3.54)"}

Values reported by Engelhart et al. 2022, doi:10.1038/s41597-022-01779-4 (FLAb copy).